Test results as given in PubChem BioAssay AID652115 (Broad Institute, 2013).
The entries are a selection whose mix differs from that of the whole data set. Some of these compounds have results that are not shown, active ones among them. The source made the active and inactive calls. Rule as the data show it: active = inhibition above about 15%; inconclusive = no clear call, values can overlap the other calls; inactive = below that.

Amino acid sequences for entries named in this document (tags omitted).
UniProt Q9NXA8, whole entry: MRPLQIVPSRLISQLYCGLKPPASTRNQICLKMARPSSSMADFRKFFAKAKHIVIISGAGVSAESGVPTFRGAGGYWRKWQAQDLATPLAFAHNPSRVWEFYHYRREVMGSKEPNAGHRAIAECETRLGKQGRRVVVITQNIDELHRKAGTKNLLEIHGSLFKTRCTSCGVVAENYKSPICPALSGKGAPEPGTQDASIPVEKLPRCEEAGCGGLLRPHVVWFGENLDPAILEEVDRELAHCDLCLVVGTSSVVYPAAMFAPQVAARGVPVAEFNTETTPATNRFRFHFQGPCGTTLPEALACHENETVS

The molecules below were run against NAD-dependent protein deacylase sirtuin-5, mitochondrial (Homo sapiens) (UniProt Q9NXA8) (assay: SIRT5 desuccinylase inhibitors, primary screen, biochemical, fluorescence imaging, single point, set 5 (AID 652115)). Settings: Purified SirT5, succinyl-peptide AMC, trypsin-coupled fluorescence; at 15 µM; active compounds read high.
In the case of `Cc1ccc(C(=O)NCC2(N3CCCCC3)CCCCC2)cc1`, the inhibition is reported as inactive: -4.08%.
`CCN(CC)CC(C)C(C)OC(=O)C(O)(c1ccccc1)c1ccccc1` (stereo not given) was tested, and the inhibition was inactive: 2.76%.
`COc1cc(SC)ccc1C(=O)NCC1(N(C)C)CCCCC1` was tested, and the inhibition was inactive: -4.77%.
With `CN1[C@@H]2CC[C@H]1CC(OC(=O)C(O)(c1ccccc1)c1ccccc1)C2` (stereo not given in full) the inhibition was inactive: -2.82%.
In the case of `O=C(NCC1(N2CCCCC2)CCCCC1)c1cc([N+](=O)[O-])ccc1Cl`, the inhibition is reported as inactive: -0.446%.
With `COc1ccc(C(=O)NCC2(N(C)C)CCCCC2)cc1` the inhibition was inactive: 0.384%.
`Cc1cc(C(=O)NCC2(N3CCCCC3)CCCCC2)ccc1[N+](=O)[O-]` was tested, and the inhibition was inactive: -0.932%.
`O=C(NCC1(N2CCCCC2)CCCCC1)c1cccc(Br)c1` was tested, and the inhibition was inactive: 2.74%.
`O=C(NCC1(N2CCCCC2)CCCCC1)c1cc(F)c(F)cc1Cl` was tested, and the inhibition was inactive: -13.8%.
`Cc1ccccc1C(=O)NCC1(N2CCCCC2)CCCCC1` was tested, and the inhibition was inactive: -1.98%.
In the case of `CN(C)c1ccc(C(=O)NCC2(N(C)C)CCCCC2)cc1`, the inhibition is reported as inactive: -0.336%.
For `CN(C)C1CCCC1OC(=O)C(O)(c1ccccc1)c1ccccc1` (stereo not given), the inhibition was inactive: 0.926%.
`O=C(NCC1(N2CCCCC2)CCCCC1)c1cccc(Cl)c1` was tested, and the inhibition was inactive: 1.04%.
`COc1cccc(C(=O)NCC2(N3CCCCC3)CCCCC2)c1` was tested, and the inhibition was inactive: 10.4%.
With `COc1ccc(Cl)cc1C(=O)NCC1(N(C)C)CCCCC1` the inhibition was inactive: 0.491%.
In the case of `COc1cc(C(=O)NCC2(N(C)C)CCCCC2)c([N+](=O)[O-])cc1OC`, the inhibition is reported as inactive: 0.837%.
In the case of `CN(C)C1(CNC(=O)c2ccc(Br)cc2)CCCCC1`, the inhibition is reported as inactive: -2.16%.
With `CC(C)Oc1ccc(C(=O)NCC2(N(C)C)CCCCC2)cc1` the inhibition was inactive: -2.59%.
`O=C(OCCN1CCCC1)C(O)(c1ccccc1)c1ccccc1` was tested, and the inhibition was inactive: -5.33%.
With `COc1ccc(Br)c(C(=O)NCC2(N3CCCCC3)CCCCC2)c1` the inhibition was inactive: -1.58%.
